Data as given in US8354379B2, “Peptides that enhance acetylcholinesterase expression” (dated 2013).

Amino acid sequences for entries named in this document (tags omitted). A change or cut given only in a name is not applied to a line headed by its entry.
UniProt P22303: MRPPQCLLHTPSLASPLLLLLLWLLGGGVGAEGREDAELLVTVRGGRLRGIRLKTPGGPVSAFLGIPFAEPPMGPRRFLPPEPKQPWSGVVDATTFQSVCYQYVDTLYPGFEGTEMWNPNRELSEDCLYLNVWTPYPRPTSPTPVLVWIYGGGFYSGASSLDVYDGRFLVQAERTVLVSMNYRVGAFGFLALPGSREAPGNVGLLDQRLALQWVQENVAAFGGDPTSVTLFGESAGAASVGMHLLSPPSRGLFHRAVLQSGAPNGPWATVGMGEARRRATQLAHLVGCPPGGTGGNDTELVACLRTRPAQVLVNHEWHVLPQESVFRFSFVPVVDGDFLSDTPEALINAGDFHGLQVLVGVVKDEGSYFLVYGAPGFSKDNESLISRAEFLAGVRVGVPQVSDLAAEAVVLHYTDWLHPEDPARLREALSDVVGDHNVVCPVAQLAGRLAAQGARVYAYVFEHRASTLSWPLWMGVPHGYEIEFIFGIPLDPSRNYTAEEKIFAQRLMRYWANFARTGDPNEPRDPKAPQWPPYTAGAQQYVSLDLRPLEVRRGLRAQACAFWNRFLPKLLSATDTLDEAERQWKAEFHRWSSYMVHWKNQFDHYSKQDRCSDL

Experiments:
human AChE = human AChE (Homo sapiens, UniProt P22303); assay: Recovery of secreted AChE forms after DFP treatment of COS cells expressing human AChE (velocity sedimentation, Ellman assay); details: 10 uM DFP 10 minutes, recovery 6 hours with 10 uM peptide vs without
AChE [1] = assay: Ability of peptides to enhance AChE expression (G4 AChE level) in COS cells expressing AChE; details: COS cells expressing human and/or mouse AChE; peptide at optimal concentration determined for ColQ PRAD-KDEL; untreated control 0.4798
AChE [2] = assay: Incubation of primary quail muscle cells with ColQ PRAD peptide; medium analyzed by velocity sedimentation and AChE assay; details: primary quail muscle cultures, overnight in defined medium, 10 uM peptide
AChE [3] = assay: Incubation of cultured cells expressing AChE with synthetic PRAD peptides; details: primary skeletal muscle cells, COS cells and HEK-293 cells expressing AChE from several species

Row | Sequence | G4 AChE level (AChE [1]) | further results
1 | CCLLTPPPPPLFPPPFFKDEL | 2.3748 | change in dimeric AChE form (human AChE): only a small decrease; increase in secreted tetrameric AChE form (human AChE): 350%
2 | KRSVNKCCLLTPPPPPLFPPPFFTETNILKDEL | 2.1384 | 
3 | CCLLTPPPPPLFPPPFF |  | change in tetrameric G4 AChE activity in medium (AChE [2]): more than doubling; AChE expression (AChE [3]): increased AChE expression
4 | KRSVNKCCLLTPPPPPLFPPPFFKDEL | 2.3723 | 
5 | VNKCCLLTPPPPPLFPPPFFKDEL | 2.2609 | 
6 | VNKCCLLTPPPPPLFPPPFFTETKDEL | 2.1710 | 
